Data taken from patent US8772480B2, “Inhibitors of PI3 kinase and/or mTOR” (priority 2009, dated 2014).

molecular target: mammalian target of rapamycin (mTOR) (Homo sapiens (Human), UniProt P42345); conditions: read-out: mTOR IC50

Compound	IC50
COc1ccc(Nc2nccnc2-c2cc(N)nc(C)n2)cn1 [Example 116, 6-(3-(6-methoxypyridin-3-ylamino)pyrazin-2-yl)-2-methylpyrimidin-4-amine]	> 10 µM
COc1ccc(Nc2ncncc2-c2nc(C)nc(N)n2)cn1 [Example 117, 4-(4-(6-methoxypyridin-3-ylamino)pyrimidin-5-yl)-6-methyl-1,3,5-triazin-2-amine]	> 10 µM
COc1ccc(Nc2nc(N)ncc2-c2nc(C)nc(N)n2)cn1 [Example 118, 5-(4-amino-6-methyl-1,3,5-triazin-2-yl)-N4-(6-methoxypyridin-3-yl)pyrimidine-2,4-diamine]	> 10 µM
COc1ccc(Nc2nc(N3CCOCC3)ncc2-c2nc(C)nc(N)n2)cn1 [Example 120, 4-(4-(6-methoxypyridin-3-ylamino)-2-morpholinopyrimidin-5-yl)-6-methyl-1,3,5-triazin-2-amine]	> 10 µM
COc1ccc(Nc2nc(N(C)C)ncc2-c2nc(C)nc(N)n2)cn1 [Example 121, 5-(4-amino-6-methyl-1,3,5-triazin-2-yl)-N4-(6-methoxypyridin-3-yl)-N2,N2-dimethylpyrimidine-2,4-diamine]	> 10 µM
COc1ccc(Nc2nc(N3CCCC3)ncc2-c2nc(C)nc(N)n2)cn1 [Example 122, 4-(4-(6-methoxypyridin-3-ylamino)-2-(pyrrolidin-1-yl)pyrimidin-5-yl)-6-methyl-1,3,5-triazin-2-amine]	> 10 µM
COc1ccc(Nc2nc(N3CCCCC3)ncc2-c2nc(C)nc(N)n2)cn1 [Example 123, 4-(4-(6-methoxypyridin-3-ylamino)-2-(piperidin-1-yl)pyrimidin-5-yl)-6-methyl-1,3,5-triazin-2-amine]	> 10 µM
COc1ccc(Nc2nc(-c3ccncc3)ncc2-c2nc(C)nc(N)n2)cn1 [Example 124, 4-(4-(6-methoxypyridin-3-ylamino)-2-(pyridin-4-yl)pyrimidin-5-yl)-6-methyl-1,3,5-triazin-2-amine]	> 10 µM
COc1ccc(Nc2nc(-c3ccc(F)cc3)ncc2-c2nc(C)nc(N)n2)cn1 [Example 125, 4-(2-(4-fluorophenyl)-4-(6-methoxypyridin-3-ylamino)pyrimidin-5-yl)-6-methyl-1,3,5-triazin-2-amine]	> 10 µM
COc1ccc(Nc2nc(NC3CCCC3)ncc2-c2nc(C)nc(N)n2)cn1 [Example 126, 5-(4-amino-6-methyl-1,3,5-triazin-2-yl)-N2-cyclopentyl-N4-(6-methoxypyridin-3-yl)pyrimidine-2,4-diamine]	> 10 µM
COc1ccc(Nc2ncc(Cl)cc2-c2nc(C)nc3[nH]cnc23)cn1 [Example 127, 5-chloro-N-(6-methoxypyridin-3-yl)-3-(2-methyl-9H-purin-6-yl)pyridin-2-amine]	> 10 µM
Cc1nc(N)nc(-c2cc(CN3CCN(S(C)(=O)=O)CC3)cnc2Nc2ccc3ocnc3c2)n1 [Example 128, N-(3-(4-amino-6-methyl-1,3,5-triazin-2-yl)-5-((4-(methylsulfonyl)piperazin-1-yl)methyl)pyridin-2-yl)benzo[d]oxazol-5-amine]	> 10 µM
Cc1nc(N)nc(-c2cc(CN3CCOCC3)cnc2Nc2ccc3scnc3c2)n1 [Example 129, N-(3-(4-amino-6-methyl-1,3,5-triazin-2-yl)-5-(morpholinomethyl)pyridin-2-yl)benzo[d]thiazol-5-amine]	1.34 µM
COc1ncc(Nc2ncc(CN3CCOCC3)cc2-c2nc(C)nc(N)n2)cc1F [Example 130, 4-(2-(5-fluoro-6-methoxypyridin-3-ylamino)-5-(morpholinomethyl)pyridin-3-yl)-6-methyl-1,3,5-triazin-2-amine]	> 10 µM
COc1ccc(Nc2ncc(CNC(C)(C)C)cc2-c2nc(C)nc3[nH]cnc23)cn1 [Example 134, 5-((tert-butylamino)methyl)-N-(6-methoxypyridin-3-yl)-3-(2-methyl-9H-purin-6-yl)pyridin-2-amine]	> 10 µM
COc1ccc(Nc2ncc(CNC(C)C)cc2-c2nc(C)nc3[nH]cnc23)cn1 [Example 135, 5-((isopropylamino)methyl)-N-(6-methoxypyridin-3-yl)-3-(2-methyl-9H-purin-6-yl)pyridin-2-amine]	> 10 µM
COc1ccc(Nc2ncc(CNCc3ccccn3)cc2-c2nc(C)nc3[nH]cnc23)cn1 [Example 136, N-(6-methoxypyridin-3-yl)-3-(2-methyl-9H-purin-6-yl)-5-((pyridin-2-ylmethylamino)methyl)pyridin-2-amine]	0.556 µM
COc1ccc(Nc2ncc(CNCc3ccncc3)cc2-c2nc(C)nc3[nH]cnc23)cn1 [Example 137, N-(6-methoxypyridin-3-yl)-3-(2-methyl-9H-purin-6-yl)-5-((pyridin-4-ylmethylamino)methyl)pyridin-2-amine]	0.55 µM

Compound	IC50
COc1ccc(Nc2ncc(CNCc3cccnc3)cc2-c2nc(C)nc3[nH]cnc23)cn1 [Example 138, N-(6-methoxypyridin-3-yl)-3-(2-methyl-9H-purin-6-yl)-5-((pyridin-3-ylmethylamino)methyl)pyridin-2-amine]	1.4 µM
COc1ccc(Nc2ncc(C(O)c3ccc(S(C)(=O)=O)cc3)cc2-c2nc(C)nc3[nH]cnc23)cn1 (centres unmarked) [Example 139, (6-(6-methoxypyridin-3-ylamino)-5-(2-methyl-9H-purin-6-yl)pyridin-3-yl)(4-(methylsulfonyl)phenyl)methanol]	> 10 µM
COc1ccc(Nc2ncc(C(C)N3CCN(S(C)(=O)=O)CC3)cc2-c2nc(C)nc3[nH]cnc23)cn1 (centres unmarked) [Example 140, N-(6-methoxypyridin-3-yl)-3-(2-methyl-9H-purin-6-yl)-5-(1-(4-(methylsulfonyl)piperazin-1-yl)ethyl)pyridin-2-amine]	0.476 µM
COc1ccc(Nc2ncc(Cc3ccc(S(C)(=O)=O)cc3)cc2-c2nc(C)nc(N)n2)cn1 [Example 141, 4-(2-(6-methoxypyridin-3-ylamino)-5-(4-(methylsulfonyl)benzyl)pyridin-3-yl)-6-methyl-1,3,5-triazin-2-amine]	> 10 µM
COc1ncc(Nc2ncc(Cc3ccc(S(C)(=O)=O)cc3)cc2-c2nc(C)nc(N)n2)cc1F [Example 142, 4-(2-(5-fluoro-6-methoxypyridin-3-ylamino)-5-(4-(methylsulfonyl)benzyl)pyridin-3-yl)-6-methyl-1,3,5-triazin-2-amine]	> 10 µM
COc1ccc(Nc2ncc(C(C)N3CCN(S(C)(=O)=O)CC3)cc2-c2nc(C)nc(N)n2)cn1 (centres unmarked) [Example 144, 4-(2-(6-Methoxypyridin-3-Ylamino)-5-(1-(4-(Methylsulfonyl)Piperazin-1-yl)Ethyl)Pyridin-3-yl)-6-Methyl-1,3,5-Triazin-2-Amine]	2.2 µM
COc1ccc(Nc2ncc([C@H](C)N3CCN(S(C)(=O)=O)CC3)cc2-c2nc(C)nc(N)n2)cn1 [Example 145, (S)-4-(2-(6-Methoxypyridin-3-Ylamino)-5-(1-(4-(Methylsulfonyl)Piperazin-1-yl)Ethyl)Pyridin-3-yl)-6-Methyl-1,3,5-Triazin-2-Amine]	1.72 µM
COc1ccc(Nc2ncc([C@@H](C)N3CCN(S(C)(=O)=O)CC3)cc2-c2nc(C)nc(N)n2)cn1 [Example 146, (R)-4-(2-(6-Methoxypyridin-3-Ylamino)-5-(1-(4-(Methylsulfonyl)Piperazin-1-yl)Ethyl)Pyridin-3-yl)-6-Methyl-1,3,5-Triazin-2-Amine]	3.25 µM
COc1ccc(Nc2ncc(C(C)c3ccc(S(C)(=O)=O)cc3)cc2-c2nc(C)nc(N)n2)cn1 (centres unmarked) [Example 149, 4-(2-(6-Methoxypyridin-3-Ylamino)-5-(1-(4-(Methylsulfonyl)Phenyl)Ethyl)Pyridin-3-yl)-6-Methyl-1,3,5-Triazin-2-Amine]	> 10 µM
COc1ncc(Nc2ncc(C(C)c3ccc(S(C)(=O)=O)cc3)cc2-c2nc(C)nc(N)n2)cc1F (centres unmarked) [Example 150, 4-(2-(5-Fluoro-6-Methoxypyridin-3-Ylamino)-5-(1-(4-(Methylsulfonyl)Phenyl)Ethyl)Pyridin-3-yl)-6-Methyl-1,3,5-Triazin-2-Amine]	> 10 µM
COc1ccc(Nc2ncc(C(=O)N3CCOCC3)cc2-c2nc(C)nc(N)n2)cn1 [Example 151, 4-(2-((6-Methoxy-3-Pyridinyl)Amino)-5-(4-Morpholinylcarbonyl)-3-Pyridinyl)-6-Methyl-1,3,5-Triazin-2-Amine]	5.39 µM
COc1ncc(Nc2ncc(C(=O)N3CCN(S(C)(=O)=O)CC3)cc2-c2nc(C)nc(N)n2)cc1F [Example 152, 4-(2-((5-Fluoro-6-Methoxy-3-Pyridinyl)Amino)-5-((4-(Methylsulfonyl)-1-Piperazinyl)Carbonyl)-3-Pyridinyl)-6-Methyl-1,3,5-Triazin-2-Amine]	> 10 µM
COCCNC(=O)c1cnc(Nc2ccc(OC)nc2)c(-c2nc(C)nc(N)n2)c1 [Example 153, 5-(4-Amino-6-Methyl-1,3,5-Triazin-2-yl)-N-(2-Methoxyethyl)-6-((6-Methoxy-3-Pyridinyl)Amino)-3-Pyridinecarboxamide]	> 10 µM
COc1ccc(Nc2ncc(CN3CCOCC3=O)cc2-c2nc(C)nc(N)n2)cn1 [Example 154, 4-((5-(4-Amino-6-Methyl-1,3,5-Triazin-2-yl)-6-((6-Methoxy-3-Pyridinyl)Amino)-3-Pyridinyl)Methyl)-3-Morpholinone]	3.03 µM
COc1ccc(Nc2ncc(CC3CCN(S(C)(=O)=O)CC3)cc2-c2nc(C)nc(N)n2)cn1 [Example 155, 4-(2-(6-Methoxypyridin-3-Ylamino)-5-((1-(Methylsulfonyl)Piperidin-4-yl)Methyl)Pyridin-3-yl)-6-Methyl-1,3,5-Triazin-2-Amine]	> 10 µM
COc1ccc(Nc2ncc(Cc3ccccc3)cc2-c2nc(C)nc(N)n2)cn1 [Example 156, 4-(5-Benzyl-2-(6-Methoxypyridin-3-Ylamino)Pyridin-3-yl)-6-Methyl-1,3,5-Triazin-2-Amine]	> 10 µM
COc1ccc(Nc2ncc(CN3CCN(C)CC3)cc2-c2nc(C)nc(N)n2)cn1 [Example 157, 4-(2-(6-Methoxypyridin-3-Ylamino)-5-((4-Methylpiperazin-1-yl)Methyl)Pyridin-3-yl)-6-Methyl-1,3,5-Triazin-2-Amine]	> 10 µM
